# Data as given in US11897886B2, “Pyrazolo[4,3-d]pyrimidines as antitumor agents” (Duquesne University of the Holy Spirit, priority 2018, dated 2024).
# The chains behind the UniProt entries cited, without tags or fusion partners.
# UniProt P81947, whole entry: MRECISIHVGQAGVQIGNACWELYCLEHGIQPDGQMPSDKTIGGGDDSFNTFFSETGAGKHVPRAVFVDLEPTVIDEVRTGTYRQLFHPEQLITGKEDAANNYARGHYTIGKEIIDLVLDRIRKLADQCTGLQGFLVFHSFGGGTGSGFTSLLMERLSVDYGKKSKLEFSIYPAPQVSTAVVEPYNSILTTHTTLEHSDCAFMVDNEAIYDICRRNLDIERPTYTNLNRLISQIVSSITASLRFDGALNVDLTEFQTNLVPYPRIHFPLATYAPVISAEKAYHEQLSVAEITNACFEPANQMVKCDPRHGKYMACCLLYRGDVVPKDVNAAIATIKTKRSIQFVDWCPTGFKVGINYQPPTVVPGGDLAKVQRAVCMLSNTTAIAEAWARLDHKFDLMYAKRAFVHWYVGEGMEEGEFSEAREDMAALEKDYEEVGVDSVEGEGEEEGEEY
# UniProt Q6B856, whole entry: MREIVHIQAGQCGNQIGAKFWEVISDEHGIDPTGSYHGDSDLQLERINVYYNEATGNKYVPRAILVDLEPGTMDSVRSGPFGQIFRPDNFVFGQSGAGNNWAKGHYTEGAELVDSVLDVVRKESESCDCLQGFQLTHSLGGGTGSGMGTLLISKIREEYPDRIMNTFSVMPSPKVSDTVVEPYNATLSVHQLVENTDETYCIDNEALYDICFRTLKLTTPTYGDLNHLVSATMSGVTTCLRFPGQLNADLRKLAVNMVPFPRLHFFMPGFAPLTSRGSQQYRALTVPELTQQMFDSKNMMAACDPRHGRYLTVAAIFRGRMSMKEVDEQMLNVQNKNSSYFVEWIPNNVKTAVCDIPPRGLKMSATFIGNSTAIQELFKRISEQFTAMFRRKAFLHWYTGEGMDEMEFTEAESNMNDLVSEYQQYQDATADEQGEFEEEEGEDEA
# Legend:
# [1] = test system: OVCAR-8; experiment: Compound activity in OVCAR-8 cell line; assay type: cell-based; settings: read-out: OVCAR-8 IC50 (nM) ± SD, Table 1
# [2] = test system: NCI/ADR-RES; experiment: Compound activity in a P-gp overexpressing cell line NCI/ADR-RES; assay type: cell-based; settings: read-out: NCl/ADR-RES IC50 (nM) ± SD, Table 1
# [3] = target: T1, tubulin (Bos taurus, UniProt P81947+Q6B856); experiment: Inhibition of [3H]colchicine binding to tubulin; settings: for Inhibition of colchicine binding 0.5 μM inhibitor % inhibition ± SD / Inhibition of colchicine binding 5 μM inhibitor % inhibition ± SD: Table 1
# [4] = target: T1, tubulin; experiment: Inhibition of tubulin assembly; assay type: biochemical; settings: for IC50: read-out: Inhibition of tubulin assembly IC50 (μM ± SD), Table 1
# [5] = test system: tumor cells; settings: reported by Gangjee et al. 2012; cited from earlier work
SMILES,IC50 [1] [nM],IC50 [2] [nM],inhibition of [3H]colchicine binding to tubulin ([3]; 5 μM) [%],Inhibition of colchicine binding 0.5 μM inhibitor % inhibition ± SD [3] [%],Inhibition of colchicine binding 5 μM inhibitor % inhibition ± SD [3] [%],IC50 [4] [µM],"GI50 values, growth of tumor cells [5]",fold improved activity in inhibition of tubulin assembly ([4]; compared to lead known Compound 1) [fold]
COc1ccc(N(C)c2nc(C)nc3cc[nH]c23)cc1,1000,700,95,88 ± 0.7,95 ± 0.8,10,nanomolar range,–
COc1ccc(N(C)c2nc(Cl)nc3ccn(C)c23)cc1,2.5,1.3,–,97 ± 2.0,95 ± 0.4,1.1,–,–
COc1ccc(N(C)c2nc(Cl)nc3cc[nH]c23)cc1,28,15,–,80 ± 3,96 ± 0.5,2.8,–,3
